What all share (conditions): actives raise or lower the signal; mRNA level, 48 h
Read-out in test [1]: CYP4A11 (gene 1579)
Put plainly: LTEA_HepaRG_CYP4A11: Life Technologies and Expression Analysis (LTEA) Assay for CYP4A11 using HepaRG (AID 2283486). Put shortly:
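Differentiated HepaRG cells, 48 h after plating, exposed in duplicate for 48 h to 8 half-log concentrations up to 100 uM in 0.5% DMSO in serum-free induction medium. CYP4A11 mRNA measured by TaqMan qRT-PCR, normalized to ACTB, GAPDH and POLR2A.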

Protein sequences, listed by entry. Tags and fused reporters are not part of them.
UniProt P08684, whole entry: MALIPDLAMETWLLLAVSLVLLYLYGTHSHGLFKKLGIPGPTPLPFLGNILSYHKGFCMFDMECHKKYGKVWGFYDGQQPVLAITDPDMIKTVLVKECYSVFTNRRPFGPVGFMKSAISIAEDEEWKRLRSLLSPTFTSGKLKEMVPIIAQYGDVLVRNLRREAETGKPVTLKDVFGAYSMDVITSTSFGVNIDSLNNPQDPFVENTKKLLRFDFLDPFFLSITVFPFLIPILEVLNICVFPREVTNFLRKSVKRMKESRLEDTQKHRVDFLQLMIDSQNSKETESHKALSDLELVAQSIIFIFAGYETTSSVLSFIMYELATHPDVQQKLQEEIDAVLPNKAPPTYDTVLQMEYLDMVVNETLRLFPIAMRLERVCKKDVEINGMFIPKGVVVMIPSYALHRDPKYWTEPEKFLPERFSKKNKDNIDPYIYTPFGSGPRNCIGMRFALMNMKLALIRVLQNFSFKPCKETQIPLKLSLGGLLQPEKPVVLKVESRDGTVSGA
UniProt P24462, whole entry: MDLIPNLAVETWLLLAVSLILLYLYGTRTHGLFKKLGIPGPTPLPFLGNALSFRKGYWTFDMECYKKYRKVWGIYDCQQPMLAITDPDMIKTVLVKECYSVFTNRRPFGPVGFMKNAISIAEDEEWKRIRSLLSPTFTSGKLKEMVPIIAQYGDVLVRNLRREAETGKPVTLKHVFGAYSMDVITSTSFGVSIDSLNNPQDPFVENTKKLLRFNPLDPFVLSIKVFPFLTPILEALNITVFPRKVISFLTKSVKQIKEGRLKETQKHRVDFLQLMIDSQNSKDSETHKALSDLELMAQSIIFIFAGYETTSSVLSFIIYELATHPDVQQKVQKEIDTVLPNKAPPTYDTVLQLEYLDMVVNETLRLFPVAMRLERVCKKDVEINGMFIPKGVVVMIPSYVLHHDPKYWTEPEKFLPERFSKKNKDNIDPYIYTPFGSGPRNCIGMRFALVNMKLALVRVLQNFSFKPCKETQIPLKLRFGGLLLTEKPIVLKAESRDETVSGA
UniProt Q16665, whole entry: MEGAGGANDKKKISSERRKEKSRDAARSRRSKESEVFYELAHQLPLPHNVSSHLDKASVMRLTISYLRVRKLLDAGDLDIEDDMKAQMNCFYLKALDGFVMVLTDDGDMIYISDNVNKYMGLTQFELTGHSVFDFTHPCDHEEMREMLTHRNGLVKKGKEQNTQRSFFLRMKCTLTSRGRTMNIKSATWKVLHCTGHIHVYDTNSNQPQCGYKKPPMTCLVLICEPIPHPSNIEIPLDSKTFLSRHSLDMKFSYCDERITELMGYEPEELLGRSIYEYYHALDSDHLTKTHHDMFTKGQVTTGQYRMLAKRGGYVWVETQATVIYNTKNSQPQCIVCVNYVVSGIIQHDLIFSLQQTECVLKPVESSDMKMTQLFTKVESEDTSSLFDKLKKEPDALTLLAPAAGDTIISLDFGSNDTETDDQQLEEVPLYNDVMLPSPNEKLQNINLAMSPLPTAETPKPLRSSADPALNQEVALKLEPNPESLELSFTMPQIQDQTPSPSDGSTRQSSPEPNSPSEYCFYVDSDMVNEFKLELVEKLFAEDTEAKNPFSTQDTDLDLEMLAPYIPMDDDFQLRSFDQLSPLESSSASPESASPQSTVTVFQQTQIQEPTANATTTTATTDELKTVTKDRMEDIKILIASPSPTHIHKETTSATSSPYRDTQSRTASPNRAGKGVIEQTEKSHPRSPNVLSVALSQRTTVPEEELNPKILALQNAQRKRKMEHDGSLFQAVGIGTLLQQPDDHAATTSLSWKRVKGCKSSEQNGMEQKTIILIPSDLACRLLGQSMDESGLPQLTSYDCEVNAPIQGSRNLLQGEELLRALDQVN

Read-out in test [2]: Cytochrome P450 3A4 (Homo sapiens) (UniProt P08684)
Kind of test: LTEA_HepaRG_CYP3A4: Life Technologies and Expression Analysis (LTEA) Assay for CYP3A4 using HepaRG (AID 2283487). Put shortly: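 CYP3A4 transcript measured by TaqMan qRT-PCR and normalized to three housekeeping genes after 48 h chemical exposure of human HepaRG cells. Top concentration 100 uM, half-log steps, 0.5% DMSO vehicle; gain or loss fitted against DMSO baseline.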

Read-out in test [3]: DNA damage-inducible transcript 3 (DDIT3), DDIT3 (gene 1649)
Kind of test: LTEA_HepaRG_DDIT3: Life Technologies and Expression Analysis (LTEA) Assay for DNA damage-inducible transcript 3 (DDIT3) using HepaRG (AID 2283488). Put shortly:
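Differentiated human HepaRG cells in serum-free induction medium were exposed in duplicate for 48 h to 8 concentrations (top 100 uM, half-log steps, 0.5% DMSO). DDIT3 mRNA measured by TaqMan qRT-PCR, normalized to ACTB/GAPDH/POLR2A; bidirectional fit versus DMSO.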

Read-out in test [4]: Pro-epidermal growth factor (Homo sapiens) (UniProt P01133)
Kind of test: LTEA_HepaRG_EGF: Life Technologies and Expression Analysis (LTEA) Assay for Epidermal growth factor (EGF) using HepaRG (AID 2283489). Put shortly: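 HepaRG cells (~100,000/well, 48 h pre-culture) exposed in duplicate for 48 h in serum-free induction medium to 8 half-log concentrations up to 100 uM in 0.5% DMSO. EGF mRNA by qRT-PCR, normalized to ACTB/GAPDH/POLR2A; bidirectional fit versus DMSO.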

Read-out in test [5]: Early growth response protein 1 (EGR1) transcription factor, EGR1 (gene 1958)
Kind of test: LTEA_HepaRG_EGR1: Life Technologies and Expression Analysis (LTEA) Assay for Early growth response protein 1 (EGR1) transcription factor using HepaRG (AID 2283490). Put shortly: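 Differentiated human HepaRG cells in serum-free induction medium were exposed in duplicate for 48 h to eight concentrations (top 100 uM, half-log steps) in 0.5% DMSO. EGR1 mRNA was quantified by qRT-PCR, normalized to ACTB, GAPDH and POLR2A, and fitted bidirectionally versus DMSO.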

Read-out in test [6]: Ezrin (EZR), EZR (gene 7430)
Put plainly: LTEA_HepaRG_EZR: Life Technologies and Expression Analysis (LTEA) Assay for Ezrin (EZR) using HepaRG (AID 2283491). An outline of the steps: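 HepaRG, 48 h chemical exposure, 8-pt half-log series from 100 uM, 0.5% DMSO vehicle, duplicates. Read-out: EZR mRNA by TaqMan qRT-PCR (Fluidigm array), housekeeping-normalized; bidirectional curve fit vs DMSO baseline.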

Read-out in test [7]: Cytochrome P450 3A7 (Homo sapiens) (UniProt P24462)
Put plainly: LTEA_HepaRG_CYP3A7: Life Technologies and Expression Analysis (LTEA) Assay for CYP3A7 using HepaRG (AID 2283492). An outline of the steps:
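Differentiated HepaRG cells in serum-free induction medium exposed 48 h in duplicate to 8-point half-log series from 100 uM top in 0.5% DMSO. CYP3A7 mRNA by qRT-PCR, normalized to ACTB/GAPDH/POLR2A, bidirectional fit versus DMSO.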

Read-out in test [8]: CYP3A5 (gene 1577)
Kind of test: LTEA_HepaRG_CYP3A5: Life Technologies and Expression Analysis (LTEA) Assay for CYP3A5 using HepaRG (AID 2283493). Put shortly:
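Differentiated HepaRG cells in serum-free induction medium were dosed 48 h with test chemicals (8-point half-log series, top 100 uM, 0.5% DMSO, duplicate). CYP3A5 mRNA measured by qRT-PCR, normalized to ACTB, GAPDH, POLR2A; bidirectional fit versus DMSO.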

Read-out in test [9]: Fatty Acid-Binding Protein 1 (FABP1), FABP1 (gene 2168)
Kind of test: LTEA_HepaRG_FABP1: Life Technologies and Expression Analysis (LTEA) Assay for Fatty Acid-Binding Protein 1 (FABP1) using HepaRG (AID 2283494). Put shortly:
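Differentiated human HepaRG cells were exposed in duplicate for 48 h in serum-free induction medium to 8-point half-log concentration series topping at 100 uM in 0.5% DMSO. FABP1 mRNA measured by TaqMan qRT-PCR, normalized to ACTB/GAPDH/POLR2A; bidirectional fit versus DMSO.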

Read-out in test [10]: Cytochrome P450 4A22 (Homo sapiens) (UniProt Q5TCH4)
Put plainly: LTEA_HepaRG_CYP4A22: Life Technologies and Expression Analysis (LTEA) Assay for Cytochrome P450 4A22 (CYP4A22) using HepaRG (AID 2283495). Put shortly: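 Differentiated HepaRG cells in serum-free induction medium exposed 48 h in duplicate to eight half-log concentrations up to 100 uM in 0.5% DMSO. CYP4A22 mRNA quantified by TaqMan qRT-PCR, normalized to ACTB, GAPDH and POLR2A; bidirectional fit versus DMSO.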

Read-out in test [11]: Cytochrome P450 7A1 (Homo sapiens) (UniProt P22680)
Put plainly: LTEA_HepaRG_CYP7A1: Life Technologies and Expression Analysis (LTEA) Assay for Cytochrome P450 7A1 (CYP7A1) using HepaRG (AID 2283496). An outline of the steps: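 Gene expression endpoint in human HepaRG liver cells treated for 48 h with test chemicals (up to 100 uM, 0.5% DMSO). Values come from bidirectional concentration-response fitting versus DMSO.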

Read-out in test [12]: Glutathione S-Transferase (GSTA2), GSTA2 (gene 2939)
Put plainly: LTEA_HepaRG_GSTA2: Life Technologies and Expression Analysis (LTEA) Assay for Glutathione S-Transferase (GSTA2) using HepaRG (AID 2283497). Put shortly: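 Human HepaRG cells, plated 48 h, then exposed in serum-free induction medium for 48 h to eight half-log concentrations up to 100 uM in 0.5% DMSO, duplicate. GSTA2 mRNA by qRT-PCR, normalized to ACTB/GAPDH/POLR2A; bidirectional fit versus DMSO.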

Read-out in test [13]: Glutamate-cysteine ligase catalytic (GCLC), GCLC (gene 2729)
Kind of test: LTEA_HepaRG_GCLC: Life Technologies and Expression Analysis (LTEA) Assay for Glutamate-cysteine ligase catalytic (GCLC) using HepaRG (AID 2283498). Put shortly:
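Differentiated human HepaRG cells, plated 48 h then switched to serum-free induction medium, were exposed in duplicate for 48 h to 8 half-log concentrations topping at 100 uM in 0.5% DMSO. GCLC mRNA was quantified by qRT-PCR against ACTB, GAPDH and POLR2A.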

Read-out in test [14]: growth arrest and DNA damage 45 (GADD45G), GADD45G (gene 10912)
Kind of test: LTEA_HepaRG_GADD45G: Life Technologies and Expression Analysis (LTEA) Assay for growth arrest and DNA damage 45 (GADD45G) using HepaRG (AID 2283499). An outline of the steps: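 Differentiated human HepaRG cells, 48 h post-plating, exposed 48 h in serum-free induction medium to 8 half-log concentrations (top 100 uM, 0.5% DMSO) in duplicate. GADD45G mRNA measured by Fluidigm TaqMan qRT-PCR, normalized to ACTB, GAPDH, POLR2A; bidirectional fit versus DMSO.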

Read-out in test [15]: Glutamate-cysteine ligase regulatory (GCLM), GCLM (gene 2730)
Put plainly: LTEA_HepaRG_GCLM: Life Technologies and Expression Analysis (LTEA) Assay for Glutamate-cysteine ligase regulatory (GCLM) using HepaRG (AID 2283500). An outline of the steps:
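Differentiated human HepaRG cells exposed 48 h in serum-free induction medium to 8-point half-log concentrations (top 100 uM, 0.5% DMSO), in duplicate. GCLM mRNA quantified by qRT-PCR, normalized to ACTB, GAPDH, POLR2A; bidirectional fitting versus DMSO.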

Read-out in test [16]: Glutathione S-transferase M3 (GSTM3), GSTM3 (gene 2947)
Kind of test: LTEA_HepaRG_GSTM3: Life Technologies and Expression Analysis (LTEA) Assay for Glutathione S-transferase M3 (GSTM3) using HepaRG (AID 2283501). Put shortly: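 Differentiated human HepaRG cells were exposed in duplicate for 48 h in serum-free induction medium, 8 points from 100 uM top in half-log steps, 0.5% DMSO. GSTM3 mRNA was measured by TaqMan qRT-PCR, normalized to ACTB, GAPDH and POLR2A; bidirectional fit versus DMSO.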

Read-out in test [17]: Heat shock 70 kDa protein 1 (HSPA1A), gene 3303
Kind of test: LTEA_HepaRG_HSPA1A: Life Technologies and Expression Analysis (LTEA) Assay for Heat shock 70 kDa protein 1 (HSPA1A) using HepaRG (AID 2283502). An outline of the steps:
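Differentiated human HepaRG cells in serum-free induction medium were exposed in duplicate for 48 h to eight concentrations (top 100 uM, half-log steps, 0.5% DMSO). HSPA1A mRNA was quantified by qRT-PCR, normalized to ACTB, GAPDH and POLR2A, and fitted bidirectionally against DMSO.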

Read-out in test [18]: Hypoxia-inducible factor 1-alpha (Homo sapiens) (UniProt Q16665)
Put plainly: LTEA_HepaRG_HIF1A: Life Technologies and Expression Analysis (LTEA) Assay for Hypoxia-inducible factor 1 (HIF1A) Trancription factor using HepaRG (AID 2283503). Put shortly: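 HepaRG, 48 h exposure, 8-pt half-log series from 100 uM, 0.5% DMSO vehicle, duplicates. Readout: HIF1A transcript by qRT-PCR (Fluidigm array), housekeeping-normalised. Bidirectional curve fit vs DMSO baseline.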

Read-out in test [19]: 3-Hydroxy-3-Methylglutaryl-CoA Synthase 2 (HMGCS2), HMGCS2 (gene 3158)
Kind of test: LTEA_HepaRG_HMGCS2: Life Technologies and Expression Analysis (LTEA) Assay for 3-Hydroxy-3-Methylglutaryl-CoA Synthase 2 (HMGCS2) using HepaRG (AID 2283504). An outline of the steps: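 Human HepaRG cells in serum-free induction medium were exposed in duplicate for 48 h to 8-point half-log series from 100 uM top in 0.5% DMSO. HMGCS2 mRNA measured by TaqMan qRT-PCR, normalised to ACTB, GAPDH, POLR2A; bidirectional fit versus DMSO.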

Read-out in test [20]: HGF (gene 3082)
Put plainly: LTEA_HepaRG_HGF: Life Technologies and Expression Analysis (LTEA) Assay for Hepatocyte Growth Facto (HGF) using HepaRG (AID 2283505). Put shortly: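 Differentiated HepaRG cells in serum-free induction medium exposed 48 h in duplicate, 8 half-log concentrations from 100 uM in 0.5% DMSO. HGF mRNA by qRT-PCR, normalised to ACTB, GAPDH, POLR2A; bidirectional fitting.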

The entries are a selection whose mix differs from that of the whole data set. Calls of active or inactive are those of the source. How the source made its calls: active means hit-call score of the fitted dose curve at least 0.9, where 1 is the maximum; inactive means score below 0.9.

One may read the AC50 as the concentration giving half of the maximal activity seen. Regarding `Cc1ccc([N+](=O)[O-])cc1[N+](=O)[O-]`, the result in test [1], in [3], in [4], in test [5], in [6] and in test [7] was inactive. The molecule was called inactive in test [8], in test [9], in test [10], in test [11], in test [12] and in test [13]. Also, the molecule was called inactive in test [14], in test [15], in test [16], in test [17], in [18] and in [19]. For the same molecule, the call in [20] was inactive. Moreover, in [2], the AC50 is active: 30.8 µM.
As to `Cc1c([N+](=O)[O-])cccc1[N+](=O)[O-]`, the result in test [1], in test [3], in [4], in test [5], in test [6] and in [7] was inactive. In addition, the molecule was called inactive in test [8], in test [9], in test [10], in test [11], in test [12] and in test [13]. Besides, the molecule was classed as inactive in [14], in [15], in [16], in test [17], in [18] and in test [19]. For the same molecule, the outcome in test [20] was inactive.
For `CC(C)OP(C)(=O)OC(C)C`, the outcome in test [1], in test [2], in test [3], in test [4], in [5] and in test [6] was inactive. Also, the call in test [7], in test [8], in test [9], in test [10], in test [11] and in [12] was inactive. Further, the result in [13], in test [14], in test [15], in test [16], in [17] and in test [18] was inactive. For the same molecule, the call in [19] and in test [20] was inactive.
In the case of `O=[N+]([O-])c1cccc([N+](=O)[O-])c1`, the molecule was classed as inactive in test [1], in test [2], in test [3], in [4], in test [5] and in [6]. Moreover, the result in test [7], in [8], in [9], in test [10], in test [11] and in [12] was inactive. The result in test [13], in test [14], in test [15], in [16], in test [17] and in [18] was inactive. In addition, the result in test [19] and in [20] was inactive.
Regarding `Cc1cccc([N+](=O)[O-])c1[N+](=O)[O-]`, the call in test [1], in test [2], in [3], in test [4], in test [5] and in test [6] was inactive. In addition, the molecule was called inactive in [7], in test [8], in [9], in test [10], in test [11] and in [12]. The outcome in [13], in test [14], in test [15], in test [16], in test [17] and in [18] was inactive. Besides, the result in test [19] and in test [20] was inactive.
